Here are results for two molecules from publication PMC11986975, “A Cdk5 inhibitor restores cognitive function and alleviates type 2 diabetes in mice” (iScience, 2025).

The chains behind the UniProt entries cited, without tags or fusion partners. Residues count along the entry.
UniProt Q00535, whole entry: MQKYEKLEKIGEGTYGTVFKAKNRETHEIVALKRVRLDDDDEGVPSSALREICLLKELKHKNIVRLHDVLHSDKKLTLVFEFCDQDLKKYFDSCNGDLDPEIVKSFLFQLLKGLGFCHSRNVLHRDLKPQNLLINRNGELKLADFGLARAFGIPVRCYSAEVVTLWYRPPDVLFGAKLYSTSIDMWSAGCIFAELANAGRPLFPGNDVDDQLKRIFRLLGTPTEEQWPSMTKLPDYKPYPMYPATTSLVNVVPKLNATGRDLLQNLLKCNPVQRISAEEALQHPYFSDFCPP
UniProt Q15078, whole entry partner: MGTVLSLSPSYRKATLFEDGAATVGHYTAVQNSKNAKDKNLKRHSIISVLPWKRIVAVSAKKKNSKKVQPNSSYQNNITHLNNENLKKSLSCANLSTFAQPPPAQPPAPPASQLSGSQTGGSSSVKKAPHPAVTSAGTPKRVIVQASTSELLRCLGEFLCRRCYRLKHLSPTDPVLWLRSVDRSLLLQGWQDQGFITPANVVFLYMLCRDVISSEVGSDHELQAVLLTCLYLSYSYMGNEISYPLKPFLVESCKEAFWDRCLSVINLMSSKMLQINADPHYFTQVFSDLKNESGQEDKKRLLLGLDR
UniProt Q15078, 99-307 partner limits assumed: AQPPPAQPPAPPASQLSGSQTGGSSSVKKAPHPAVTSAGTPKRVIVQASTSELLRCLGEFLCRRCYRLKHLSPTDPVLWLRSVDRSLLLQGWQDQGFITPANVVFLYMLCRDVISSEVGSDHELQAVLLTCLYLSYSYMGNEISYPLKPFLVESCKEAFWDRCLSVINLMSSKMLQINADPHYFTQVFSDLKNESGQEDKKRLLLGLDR

The target in one assay is Cdk5/p35 (Homo sapiens, UniProt Q00535). Description: Cdk5 kinase assay (ADP-Glo) with Cdk5/p35 complex. The settings on record: read-out: IC50 (nM) (Cdk5/p35); 10 μM ATP, histone substrate, inhibitor 0-100 nM. The method, then: (§1) The test tube Cdk5 Kinase assay was performed utilizing Cdk5/p35 and Cdk5/p25 complexes as kinases, following the modified procedure outlined in a previous study,[52] using a Promega ADP-GloTM Kinase Assay kit. The reaction was carried out with 10 μM ATP and 2 μg of histone as the substrate for Cdk5 complexes. To study the inhibition patterns, 19 Cdk5 inhibitors (BLINK1-19) identified through molecular docking were added to the Cdk5 kinase reaction in increasing concentrations ranging from 0 to 100 nM. The IC50 (half-maximal inhibitory concentration) values of all the inhibitors were calculated based on Log(inhibitor) vs. normalized response using GraphPad software.

For another assay, the target named is Cdk5/p25 (Homo sapiens, UniProt Q00535). Description: Cdk5 kinase assay (ADP-Glo) with Cdk5/p25 complex. The settings on record: read-out: IC50 (nM) Cdk5/p25; 10 μM ATP, histone substrate, inhibitor 0-100 nM. As for the experimental part: as §1

Regarding `O=c1oc2ccccc2cc1-c1csc(Cc2nc(-c3ccc(Cl)cc3)cs2)n1`, the IC50 at Cdk5/p35 came to 47.8 nM; at Cdk5/p25, 88.4 nM.

In the case of `O=C(NCCO)c1cccc(Nc2nc(-c3ccccc3)c3cc(Cl)ccc3n2)c1`, the IC50 turned out to be 34.8 nM on Cdk5/p35 and 22.9 nM at Cdk5/p25.
